# Measured values reported in US10618902B2, “Substituted pyrido[2,3-d]pyrimidines as inhibitors of protein kinases” (Celgene CAR LLC, priority 2013, dated 2020).
# By UniProt entry, the sequences of proteins in these tests, tags left out. Residues count along the entry.
# UniProt P22455, 460-802: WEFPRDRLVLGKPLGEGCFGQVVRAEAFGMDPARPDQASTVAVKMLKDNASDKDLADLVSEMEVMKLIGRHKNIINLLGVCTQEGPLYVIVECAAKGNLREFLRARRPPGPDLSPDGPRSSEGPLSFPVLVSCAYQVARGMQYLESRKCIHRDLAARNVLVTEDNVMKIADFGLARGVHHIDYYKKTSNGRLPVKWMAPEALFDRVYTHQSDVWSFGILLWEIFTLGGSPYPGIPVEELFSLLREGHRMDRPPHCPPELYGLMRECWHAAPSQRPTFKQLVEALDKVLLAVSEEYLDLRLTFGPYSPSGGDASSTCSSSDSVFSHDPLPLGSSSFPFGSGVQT
# Molecular target: FGFR4 intact protein (Homo sapiens (Human), UniProt P22455)
# Settings: method a: FGFR4 from SignalChem; 10-fold excess of compound, 60 min
row,MS FGFR4 (mass modification),Structure (SMILES)
1,E (a mass modification of ≥70%),C=CC(=O)Nc1ccccc1Nc1ncc2c(n1)N(Cc1cccc(NC(=O)CC)c1)C(=O)N(c1c(Cl)c(OC)cc(OC)c1Cl)C2 [Compound I-1]
2,F (a mass modification of 31-69%),C=CC(=O)NC1CCCCC1Nc1ncc2c(n1)N(Cc1cccc(NC(=O)CC)c1)C(=O)N(c1c(Cl)c(OC)cc(OC)c1Cl)C2 (racemic) [Compound I-7]

row,Structure (SMILES),MS FGFR4 (mass modification)
1,C=CC(=O)Nc1cccc(Nc2ncc3c(n2)N(Cc2cccc(NC(=O)CC)c2)C(=O)N(c2c(Cl)c(OC)cc(OC)c2Cl)C3)c1 [Compound I-232],G (a mass modification ≤30%)
